Consider 12 molecules from US20260184712A1, “Heterocyclic Compounds as ENT Inhibitors and Compounds for Use in the Treatment of Cancers” (iTeos Belgium SA, priority 2022, published 2026).

Protein sequences, listed by entry. Tags and fused reporters are not part of them.
UniProt Q99808, whole entry: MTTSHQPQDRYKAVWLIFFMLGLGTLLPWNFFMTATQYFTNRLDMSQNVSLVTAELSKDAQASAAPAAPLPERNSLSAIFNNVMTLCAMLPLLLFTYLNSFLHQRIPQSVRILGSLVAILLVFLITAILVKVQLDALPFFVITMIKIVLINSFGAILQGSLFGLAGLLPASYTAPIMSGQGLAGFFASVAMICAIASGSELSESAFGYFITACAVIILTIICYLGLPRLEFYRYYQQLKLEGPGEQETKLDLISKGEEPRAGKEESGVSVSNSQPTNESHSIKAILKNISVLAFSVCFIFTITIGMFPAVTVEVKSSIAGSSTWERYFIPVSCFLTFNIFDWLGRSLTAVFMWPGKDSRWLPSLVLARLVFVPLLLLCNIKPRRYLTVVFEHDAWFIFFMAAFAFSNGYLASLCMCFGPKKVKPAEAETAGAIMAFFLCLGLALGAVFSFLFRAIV

Bounds are passed on as bounds.

The target of one experiment is human ENT1 (Homo sapiens, UniProt Q99808). Put plainly: ENT1 binding assay (competition with Sahenta-DY647 on JAR cells). Particulars: read-out: Binding Assay IC50, IC50 categorized. On the procedure:
Compounds of the present disclosure were assayed to show ability to bind to human ENT1. The assay is a competition between a compound of interest and Sahenta-DY647, an ENT1 inhibitor that emits fluorescence (Ex=630 nm, Em=670 nm). By measuring the fluorescence at the end of the assay, one can assess the binding potency of the compounds tested. The compounds of the present disclosure were tested and compared to known ENT inhibitors, dilazep and NBMPR:
JAR cells expressing ENT1 were purchased from ATCC® (HTB-144TM). Cells were cultured in RPMI 1640 medium (LONZA®, #BE12-702F/U1) supplemented with 10% FBS (GIBCO®, #10270-106), 10 mM Hepes (LONZA®, #BE17-737E), 1 mM Sodium Pyruvate (LONZA®, #BE13-115E), and 2% Penicillin/Streptomycin (LONZA®, #DE17-603E) at 37° C. and 5% CO2.
The assay was conducted with the following buffer on the day of the assay: HBSS (LONZA®, #LO-527F) supplemented with 10 mM Hepes (LONZA®, #BE17-737E) and 0.1% BSA (Miltenyi®, #130-091-376).
JAR cells were resuspended in the described buffer. The compounds of interest and Sahenta-DY647 were diluted 200× with the described buffer.
A total of 50,000 cells were pre-incubated for 30 min at 4° C. with the compounds of the present disclosure before adding the corresponding amount of Sahenta-DY647 (100 nM) to the minimal concentration at Bmax and incubating for an additional 30 min at 4° C. The total volume of the reaction was 100 μL (50 μL of cells, 25 μL of the compounds of the present disclosure, and 25 μL of Sahenta-DY647) in a U-bottom 96 well plate (Greiner®, #650-180). The plates were washed 2× by centrifugation (4 min, 400 rcf at 4° C.) in the same buffer. Cells were re-suspended in 70 μL of the buffer and 50 μL was transferred to a Black 384 Optiplate (PerkinElmer®, #6007279). Fluorescence (Ex=630 nm, Em=670 nm) was acquired on a Spectramax i3x (Molecular Devices®).
Dose-response data from the compounds were analyzed with Graphpad Prism 9.1.1@software, using nonlinear regression applied to a sigmoidal dose-response model and the following equation:
Y=Bottom+(Top-Bottom)/(1+10^((LogIC50−X)*HillSlope)), with a shared bottom and top between the test reagent and dipyridamole.
Data from multiple experiments were compiled by taking the average pIC50 value for the reagent in question±the standard deviation (s.d.) and expressing it as an average IC50 value in nM.
The inhibitory effect of the test compound was expressed as a percentage of the inhibition of SAHENTA-DY647 binding.

The test system of experiment [1] is stimulated primary human T cells. As to the kind of experiment: T cell proliferation assay, Condition B (X-VIVO15, 2% HSA and 0.1% AAG). The settings on record: read-out: T Cell proliferation (Condition B) IC50; Condition B: X-VIVO15 medium containing HSA and α1-Acid Glycoprotein; anti-CD3/anti-CD28 beads, ATP, 4 days; CFSE-lo T cells. How it is done:
(§1) The goal of this study was to determine the potency of ENT1 inhibitors by measuring the rescued proliferation of stimulated primary human T cells incubated in the presence of 100 uM Adenosine triphosphate (ATP), in baseline conditions (condition A) or in the presence of various proteins known to bind small molecules (condition B).
Condition B: X-VIVO15, 2% Human Serum Albumin (HSA) and 0.1% α-1-Acid Glycoprotein (AAG)
(§2) Venous blood from healthy volunteers, all of whom signed an informed consent approved by the Ethics Committee (FOR—UIC—BV-050-01-01 ICF_HBS_HD Version 5.0), was obtained by ImmuneHealth (Centre Hospitalier Universitaire Tivoli, La Louviere, Belgium). Mononuclear cells were collected by density gradient centrifugation, using SepMate-50 tubes (StemCell Technologies, Grenoble, France) and Lymphoprep (Stemcell Technologies) according to the manufacturer's instructions. CD3+ T cells were isolated by immunomagnetic negative selection, using the EasySep Human T Cell Isolation Kit (StemCell Technologies) as per the manufacturer's instructions. CD3+ T cells were stored in heat inactivated FBS (hiFBS; Gibco, ThermoFisher Scientific, Merelbeke, Belgium) and 10% DMSO in liquid nitrogen.
(§3) Purified human CD3+ T cells were thawed and washed once with RPMI1640 medium, UltraGlutamine (Lonza, Verviers, Belgium) containing 10% hiFBS. Cells were resuspended in PBS containing 10% hiFBS at 1×10^7 cells/ml. One volume of cells was combined with a matching volume of 2 μM CFSE solution in PBS, mixed well by pipetting, and incubated at room temperature for 5 minutes under rotation and protected from light. Excess CFSE was quenched by addition of PBS containing 10% hiFBS, and the cells were centrifuged (300×rcf, 7 minutes) and resuspended in X-VIVO15. Cells were again centrifuged and resuspended in X-VIVO15 for counting.
(§4) Cells were resuspended at 1.6×10^6 cells/mL in X-VIVO15 medium (Condition A) or X-VIVO15 medium containing 4% (v/v) HSA (Sigma-Aldrich, Diegem, Belgium) and 0.2% (v/v) ai-Acid Glycoprotein (Sigma-Aldrich, Diegem, Belgium) (Condition B).
[…] of cell suspension (2×10^4 cells) was added to wells of sterile flat-bottom 384-well plates. […]
(§5) Samples were run on a BD LSR Fortessa FACS machine (BD FACSDiva Software v9.0.1). Data were analyzed using FlowJo (BD, v10.7.1). T cell proliferation was determined by measuring the frequency of ‘CFSE^lo’ (i.e. CFSE-diluted).
(§6) T cell proliferation data were analyzed using FlowJo software (Version 10.6.2). […]
(§7) T cell proliferation was determined based on the percent CFSE^lo total T cells for each condition. […]

Experiment [2] shares this test system. As to the kind of experiment: T cell proliferation assay, Condition A (X-VIVO15). The settings on record: read-out: T Cell proliferation (Condition A) IC50; Condition A: X-VIVO15 medium; anti-CD3/anti-CD28 beads, ATP, 4 days; CFSE-lo T cells. On the procedure:
as §1, §2, §3, §4
12.5 mL of cell suspension (2×10^4 cells) was added to wells of sterile flat-bottom 384-well plates. Cells were activated by adding […] of anti-CD3 anti-CD28 coated microbeads (Dynabeads human T-activator CD3/CD28; Life Technologies, Paisley, UK) suspended in X-VIVO15 medium or X-VIVO15 medium containing 4% (v/v) HSA and 0.2% (v/v) ai-Acid Glycoprotein at a ratio of one microbead per two cells. […]
as §5, §6, §7

Take `C[C@H]1O[C@@H](n2cnc3c2ncn2cc(-c4ccc([N+](=O)[O-])cc4)cc32)[C@H](O)[C@@H]1O`: the IC50 at human ENT1 was greater than 500 nM.

As for `C[C@H]1O[C@@H](n2cnc3c(COc4cc(F)c(C#N)c(F)c4)ncnc32)[C@H](O)[C@@H]1O`, the IC50 on human ENT1 was greater than 500 nM.

Take `C[C@H]1O[C@@H](n2cnc3c(NS(=O)(=O)c4ccc([N+](=O)[O-])cc4)ncnc32)[C@H](O)[C@@H]1O`: the IC50 at human ENT1 was greater than 500 nM.

In the case of `OC[C@H]1O[C@@H](n2cnc3c(NCc4ccccc4)ncnc32)[C@H](O)[C@@H]1O`, the IC50 on human ENT1 is greater than 500 nM.

With `OC[C@H]1O[C@@H](n2cnc3c(SCc4ccc(OC(F)F)cc4)ncnc32)[C@H](O)[C@@H]1O`, the IC50 was greater than 500 nM in experiment [1], 1 to 20 nM in experiment [2] and 20 to 500 nM at human ENT1.

As to `C[C@H]1O[C@H](n2c(NCc3cnn(C)c3)nc3c(OCc4ccc([N+](=O)[O-])cc4)ncnc32)[C@H](O)[C@@H]1O`, the IC50 is 20 to 500 nM in experiment [1], less than 1 nM in experiment [2] and 1 to 20 nM on human ENT1.

Consider `C[C@H]1O[C@H](n2c(NCc3ccccc3)nc3c(OCc4ccc([N+](=O)[O-])cc4)ncnc32)[C@H](O)[C@@H]1O`, for which the IC50 in experiment [1] was 20 to 500 nM; in experiment [2], less than 1 nM; at human ENT1, 1 to 20 nM.

As for `C[C@H]1O[C@@H](n2nc(C(=O)NC3CCCC3)c3c(OCc4ccc([N+](=O)[O-])cc4)ncnc32)[C@H](O)[C@@H]1O`, at human ENT1, the IC50 is 20 to 500 nM.

Take `C[C@H]1O[C@H](n2c(NCc3cn[nH]c3)nc3c(OCc4ccc([N+](=O)[O-])cc4)ncnc32)[C@H](O)[C@@H]1O`: the IC50 at human ENT1 was less than 1 nM.

As for `CC(CO)Nc1nc2c(OCc3ccc([N+](=O)[O-])cc3)ncnc2n1[C@H]1O[C@H](C)[C@@H](O)[C@H]1O` (some centres unmarked), the IC50 at human ENT1 is less than 1 nM.

With `C[C@H]1O[C@@H](n2ncc3c(SCc4ccc([N+](=O)[O-])cc4)ncnc32)[C@H](O)[C@@H]1O`, the IC50 in experiment [1] is greater than 500 nM; in experiment [2] it was 1 to 20 nM; on human ENT1, 20 to 500 nM.

As for `CC(CCO)Nc1nc2c(OCc3ccc([N+](=O)[O-])cc3)ncnc2n1[C@H]1O[C@H](C)[C@@H](O)[C@H]1O` (some centres unmarked), the IC50 at human ENT1 was less than 1 nM.
